The list shows a part of the results, in another mix than the full data. Some results for these compounds are left out of this collection, so the calls shown say nothing about other tests. Activity calls are given as the source filed them.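 How the source made its calls: active means activation above the mean across all tested compounds plus 3 SD, cutoff set per campaign (cut at about 5.5% in these data); inactive means the rest.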

The nature of the assay: Hsp70 promoter-driven reporter induction – cell-based, HeLa, Hsp70 promoter luciferase, luminescence, 10 µM, primary screen (AID 1203).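 Further: 100% = MG132 at 30 µM as the positive control and 0% = DMSO.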 The note with it: at 10 µM, stronger effect = higher value, scaled: vehicle 0, proteasome-inhibitor control 100%.
Turning to `O=C(OC1CN2CCC1CC2)C(CO)(c1ccccc1)c1ccccc1` (centres undefined), the activation is inactive: -0.05%. Consider `CN(C)c1cccc(C(=O)NCC2(N(C)C)CCCCC2)c1`, for which the activation was inactive: 0.05%. As for `COc1cccc(C(=O)NCC2(N3CCCCC3)CCCCC2)c1`, the figure is inactive: -0.14%.

On to `CN(C)C1CCCC1OC(=O)C(O)(c1ccccc1)c1ccccc1` (centres undefined), for which the activation is inactive: 0.29%. For `Cc1ccccc1C(=O)NCC1(N2CCCCC2)CCCCC1` the value was inactive: -0.35%. For `CCN1CCCC(OC(=O)C2(O)c3ccccc3C=Cc3ccccc32)C1` (centres undefined) the value was inactive: -0.28%; for `C=CCN1CCN(CCOC(=O)C(O)(c2ccccc2)c2ccccc2)CC1`, inactive: -0.29%; for `O=C(NCC1(N2CCCCC2)CCCCC1)c1cc([N+](=O)[O-])ccc1Cl`, inactive: -0.3%. As for `CC(C)N1C(=O)CC2(CCN(CCOC(=O)C(O)(c3ccccc3)c3ccccc3)CC2)C1=O`, the figure is inactive: -0.17%.

For the origin of these results see PubChem BioAssay AID1203 (The Scripps Research Institute Molecular Screening Center, 2008).
